Data on one compound can be found in publication PMC7570871, “Evaluation of a New ^177Lu-Labeled Somatostatin Analog for the Treatment of Tumors Expressing Somatostatin Receptor Subtypes 2 and 5” (Molecules, 2020).

The chains behind the UniProt entries cited, without tags or fusion partners. Where a name states a change or a piece, a line headed by the entry shows the natural chain unless it says otherwise.
UniProt P30874: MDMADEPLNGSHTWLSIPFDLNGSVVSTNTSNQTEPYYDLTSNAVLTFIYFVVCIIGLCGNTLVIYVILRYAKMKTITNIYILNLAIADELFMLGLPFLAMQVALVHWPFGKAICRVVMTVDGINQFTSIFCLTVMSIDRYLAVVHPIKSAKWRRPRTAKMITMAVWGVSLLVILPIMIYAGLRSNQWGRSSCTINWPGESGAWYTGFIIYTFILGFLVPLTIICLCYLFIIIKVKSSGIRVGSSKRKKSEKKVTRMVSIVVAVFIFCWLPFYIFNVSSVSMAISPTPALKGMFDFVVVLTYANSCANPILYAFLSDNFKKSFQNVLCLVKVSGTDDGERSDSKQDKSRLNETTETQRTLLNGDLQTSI

Structures are written as SMILES.

The target in this test is T1, human SST2 (Homo sapiens, UniProt P30874).
T1 construct: expressed in transfected cells; host or cells: HEK cells (HEK-SST2), stably transfected
As to the kind of experiment: Competition binding assay with 125I-SS-14 on membranes of HEK-SST2 cells. The note with it: 125I-SS-14 radioligand. How it is done:
Human Embryonic Kidney (HEK) cells were stably transfected with plasmids encoding the human SST2 and SST5 (HEK-SST2 and HEK-SST5) and cultivated as previously described. […] Nontransfected HEK cells were used as negative control.
Binding assays were performed as described previously.

With `CC(C)[C@@H]1NC(=O)[C@H](CCCCN)NC(=O)[C@@H](Cc2c[nH]c3ccccc23)NC(=O)[C@H](Cc2ccc(O)c(I)c2)NC(=O)[C@@H](NC(=O)[C@@H](Cc2ccc(N)c(I)c2)NC(=O)CN2CCN(CC(=O)O)CCN(CC(=O)O)CCN(CC(=O)O)CC2)CSSC[C@@H](C(=O)N[C@H](C(N)=O)[C@@H](C)O)NC1=O` [^natLu-DOTA-ST8950, metal not drawn], the concentration for half-maximal inhibition (IC50) was determined as 0.35 nM.

The IC50 is the concentration that inhibits the measured activity by half. Read a high IC50 as weaker potency in that assay.
